The source of these data is paper PMC8765435, “In Vitro Antimalarial Activity of Inhibitors of the Human GTPase Rac1” (Antimicrobial Agents and Chemotherapy, 2022).

For experiment [1], the system named is P. falciparum asexual parasites, chloroquine-sensitive D10 strain. As to the method: (§1) Chloroquine (CQ)-sensitive (D10, wild-type 3D7, or transgenic 3D7elo1-pfs16-CBG99) and CQ-resistant (W2) strains of P. falciparum were cultured as described previously ([58]), with slight modifications, as detailed in the supplemental material.
(§2) Asexual parasite growth was determined spectrophotometrically (optical density at 650 nm [OD650]) by measuring the activity of parasite lactate dehydrogenase (pLDH), according to a modified version of the method of Makler et al. ([59]). Gametocyte viability was measured by a luminescence method described previously ([60]). Details for the two methods are reported in the supplemental material. From either the OD or ALU (arbitrary luminescence units), the percentages of viability were calculated according to the formula 100 × (treated sample signal − blank signal)/(untreated control signal − blank signal). The blank for the pLDH assay was uninfected RBCs at the same hematocrit as that of parasitized RBCs, and the blank for the luminescence assay was parasites treated with a high dose of methylene blue. […]
(§3) The CQ-sensitive (D10) and the CQ-resistant (W2) strains were maintained at 5% hematocrit […]
(§4) supplemented with 1% AlbuMaxII (lipid-rich bovine serum albumin) (Invitrogen), 0.01% hypoxantine (Sigma), 20mM Hepes (EuroClone), 2 mM glutamine (EuroClone). […]
(§5) In vitro P. falciparum drug susceptibility assay […]
(§6) plate were transferred to a plate containing 100µl of Malstat reagent (0.11% [vol/vol] Triton- […]
(§7) dinucleotide [APAD] [Sigma-Aldrich], adjusted to pH 9 with 1 M HCl) and 25 µl of PES/NBT […]
(§8) pLDHassay. The plate was read at a wavelength of 650 nm using a microplate reader, Synergy4 […]
(§9) Uninfected RBC at the same HCT than parasites were used as blank. […]

Experiment [2] has as its system P. falciparum asexual parasites, chloroquine-resistant W2 strain. To be noted: 72 h. As to the method: as §1, §2, §3, §4, §5, §6, §7, §8, §9
The test system of the next experiment is Rac-GEF interaction. Further details: method as in PMID 11595749. To be noted: Rac-GEF interaction in vitro; cited from earlier work.

As usually defined, the IC50 is the concentration that inhibits the measured activity by half.

Consider `CSCC[C@H](N)C(=O)N[C@H](C(=O)N[C@@H](CC(=O)O)C(=O)NCC(=O)N[C@@H](CCCCN)C(=O)N1CCC[C@H]1C(=O)N[C@H](C(=O)N[C@@H](CC(N)=O)C(=O)N[C@@H](CC(C)C)C(=O)NCC(=O)N[C@@H](CC(C)C)C(=O)N[C@@H](Cc1c[nH]c2ccccc12)C(=O)N[C@@H](CC(=O)O)C(=O)N[C@H](C(=O)N[C@@H](C)C(=O)NCC(=O)O)[C@@H](C)O)C(C)C)C(C)C` [Compound W56], for which the “antimalarial activity (in words)” value in experiment [1] (asexual and sexual P. falciparum parasites) is on record as “no effect”. The half-maximal inhibitory concentration (IC50) in experiment [1] (asexual parasites, chloroquine-sensitive D10 strain, 72 h) is > 50 µM; in experiment [2], > 50 µM; in the experiment with Rac-GEF interaction, 100 to 150 µM.
